The text below walks through data of patent US9492413B2 (priority 2008, dated 2016).

For series [1] the following is noted: mouse, in vivo.
The conditions of series [2]: human, in vivo.

“lysine-glycine-acetylsalicylate [LG-acetylsalicylate]”: in series [1], the body temperature result is on record as “No difference”, the “changes of the body weight” value is “no significant difference”, the “compatibility of inhalative application” value is listed as “well compatible” and the “organ weight of liver” value is given as “no significant difference”. Also, in series [1], the “organ weight of spleen” value is reported as “no significant difference”, the “signs for liver toxicity” value is given as “no signs for a liver toxicity” and the systemic inflammation reactions result is reported as “no systemic inflammation reactions”. For the same substance, in series [2], the subjectively perceived compatibility result is reported as “excellent”, the taste irritations entry was “No patient reported taste irritations” and the urge to cough entry was “no extra urge to cough”.
